Experimental data as given in patent US9802941B2, “Compounds and methods for inhibiting histone demethylases” (Gilead Sciences, Inc., priority 2014, dated 2017).
Like-named read-outs stand apart in the source and are kept apart here.

Protein sequences, listed by entry. Tags and fused reporters are not part of them. Residues count along the entry.
UniProt Q8NHM5, 1-650 limits assumed: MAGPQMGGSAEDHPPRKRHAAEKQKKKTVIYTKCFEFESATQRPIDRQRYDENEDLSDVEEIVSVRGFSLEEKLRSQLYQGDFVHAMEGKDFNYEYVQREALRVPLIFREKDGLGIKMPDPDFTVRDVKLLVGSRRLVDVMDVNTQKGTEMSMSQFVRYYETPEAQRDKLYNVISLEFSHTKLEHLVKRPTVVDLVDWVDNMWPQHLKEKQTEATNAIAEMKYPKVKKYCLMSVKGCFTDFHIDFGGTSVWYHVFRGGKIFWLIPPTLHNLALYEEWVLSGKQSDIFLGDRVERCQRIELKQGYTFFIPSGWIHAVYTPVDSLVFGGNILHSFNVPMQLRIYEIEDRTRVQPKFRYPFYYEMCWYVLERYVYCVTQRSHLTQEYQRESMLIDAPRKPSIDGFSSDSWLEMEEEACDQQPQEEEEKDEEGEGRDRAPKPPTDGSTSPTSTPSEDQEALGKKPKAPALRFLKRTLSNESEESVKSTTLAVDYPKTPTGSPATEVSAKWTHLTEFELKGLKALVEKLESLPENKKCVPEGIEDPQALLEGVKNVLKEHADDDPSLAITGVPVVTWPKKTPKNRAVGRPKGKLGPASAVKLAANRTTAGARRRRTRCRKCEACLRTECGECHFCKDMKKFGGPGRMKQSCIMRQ
UniProt Q9UGL1, 1-809 limits assumed: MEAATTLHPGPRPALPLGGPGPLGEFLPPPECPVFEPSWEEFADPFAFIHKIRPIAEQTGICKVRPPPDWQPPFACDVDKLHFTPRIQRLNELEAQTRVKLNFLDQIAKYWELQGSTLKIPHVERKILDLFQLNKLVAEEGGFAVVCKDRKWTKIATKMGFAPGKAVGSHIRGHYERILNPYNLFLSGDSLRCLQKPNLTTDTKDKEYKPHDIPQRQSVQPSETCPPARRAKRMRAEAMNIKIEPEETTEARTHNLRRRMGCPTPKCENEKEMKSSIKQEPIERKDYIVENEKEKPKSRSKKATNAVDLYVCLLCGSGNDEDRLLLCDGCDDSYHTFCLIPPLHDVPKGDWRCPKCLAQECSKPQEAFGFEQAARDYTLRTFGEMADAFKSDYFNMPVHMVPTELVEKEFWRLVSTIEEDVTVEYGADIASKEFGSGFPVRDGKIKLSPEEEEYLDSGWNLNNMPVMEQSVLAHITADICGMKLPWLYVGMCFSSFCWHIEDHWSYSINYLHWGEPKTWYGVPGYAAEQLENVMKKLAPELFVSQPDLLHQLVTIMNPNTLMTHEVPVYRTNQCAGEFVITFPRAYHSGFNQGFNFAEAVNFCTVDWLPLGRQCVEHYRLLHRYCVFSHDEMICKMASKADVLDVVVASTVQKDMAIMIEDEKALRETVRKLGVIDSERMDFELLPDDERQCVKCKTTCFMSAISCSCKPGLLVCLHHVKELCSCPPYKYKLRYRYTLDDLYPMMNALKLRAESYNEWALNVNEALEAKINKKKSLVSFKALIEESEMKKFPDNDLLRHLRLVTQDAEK

Experiments:
KDM2B (FBXL10) = KDM2B (FBXL10) (Homo sapiens, UniProt Q8NHM5); assay: Histone lysine demethylase AlphaLISA assay, KDM2B
KDM5B (PLU-1) = KDM5B (PLU-1) (Homo sapiens, UniProt Q9UGL1); assay: Histone lysine demethylase AlphaLISA assay, KDM5B

`COc1ccc(OCc2ccccc2)c(CCNCc2cc(C(=O)O)cc(CO)n2)n1` showed an IC50 (KDM2B (FBXL10); read-out: HDME Inhibition KDM2B (IC50), AlphaLISA assay) of 242 nM, an IC50 (KDM2B (FBXL10); read-out: HDME Inhibition KDM2B, AlphaLISA, in vitro) of 242 nM and an IC50 (KDM5B (PLU-1); read-out: HDME Inhibition KDM5B (IC50), AlphaLISA assay) of over 10000 nM. The IC50 (KDM5B (PLU-1); read-out: HDME Inhibition KDM5B, AlphaLISA, in vitro) was over 10000 nM.
